Source: US20050064382A1, “Method of prevention of lysosomal leakage in eukaryotic cells by using 6-methyluracil based water-soluble compounds and method of producing thereof” (priority 2002, published 2005)

Assays:
[1] = Water solubility; type: physicochemical
[2] = tested on: skeletal (rear leg) muscle homogenates; experiment: Proteolytic index of muscle homogenates (autoproteolysis, Ninhidrin); type: biochemical, rat; details: incubation 4 hours at 37° C.
Protocol: In-vitro tests were performed on the skeletal (rear leg) muscles of 17 white laboratory rats. Preliminary research efforts determined 1) the preparation method for muscle homogenates, 2) estimation of level of the proteolytic activity by measuring for the concentration of free amino acids, a result of protein cleavage, and 3) the optimal time of authoproteolysis.
The preparation of muscle homogenates. Efforts were made to disassemble the muscle tissue gently, without disruption of the lysosomes, though with sufficient strength to ensure a homogeneous suspension of muscle cells in physiological solution (PBS). Potter's homogenator was used with a glass barrel and a Teflon pestle. Determination of the optimal treatment was based on experimental data and the activity of the proteases during the incubation of the homogenates at 37° C. If lysosomes were damaged during preparation of the homogenates, then there was no increase in concentration of free amino acids during incubation. Undamaged lysosomes in the homogenate would continue their proteolytic activity during incubation. For the best preparation of the homogenate, the muscles were separated from the connecting tissue, weighed and cut up with scissors in a Petri dish for 10 minutes. The tissue was transferred into the barrel of the homogenator and cold, standard PBS was added ten parts to one part of tissue (weight to volume). The tissues were turned into homogenate with 6 strokes of the pestle. Glucural was dissolved in water (2.5 mg/ml) and added to the PBS before the treatment. All manipulations were done at 0° C.
The estimation of proteolytic activity. After incubation of the muscle samples for 4 hours, they were iced and then centrifuged for 10 minutes at low speed.
After the incubation of samples, the protein concentration was estimated by the standard Bio-Rad method. To estimate proteolytic activity based on the concentration of free amino acids found in the sample, three methods were tried: 1) absorbance at 280 nm, 2) concentration of amino acid tyrosine by estimation with Folin reagent, and 3) concentration of end amino groups with Ninhidrin reagent. Only method 3 provided accurate results, so the proteolytic index was measured based on the Ninhidrin reagent. After the estimation of protein concentrations, we used aliquots 0.05 or 0.1 ml, added water to have the volume equal to 0.8 ml and added 0.8 ml of 0.1% Ninhidrin water solution. Samples were boiled in a water bath for 10 minutes, chilled and the absorbance at 560 nm was measured. […] Concentrations of free amino acids and protein in mg/ml could therefore be determined for both cases. The ratio of free amino acids per proteins in the sample was calculated as the proteolytic index. […]

complex of 2,4-dihydroxy-6-methylpyrimidine with N-methyl-D-glucamine [Glucural]
water-solubility [1]: more than 30 mg/ml | water-solubility relative to thalidomide [1]: more than ten times higher | Proteolytic Index ([2]; Glucural 20 mkg/ml): 2.142 ± 0.274 mg of aminoacids per mg of protein | Proteolytic Index ([2]; Glucural 30 mkg/ml): 2.268 ± 0.195 mg of aminoacids per mg of protein | Proteolytic Index ([2]; Glucural 50 mkg/ml): 1.380 ± 0.170 mg of aminoacids per mg of protein | Proteolytic Index ([2]; Glucural 100 mkg/ml): 1.071 ± 0.116 mg of aminoacids per mg of protein
